We go through one compound from publication PMC5891061, “Electrophysiological mechanisms of vandetanib-induced cardiotoxicity: Comparison of action potentials in rabbit Purkinje fibers and pluripotent stem cell-derived cardiomyocytes” (PLoS ONE, 2018).

Protein sequences, listed by entry. Tags and fused reporters are not part of them. Lines headed by an entry give the natural chain unless they say otherwise; changes in a name come on top.
UniProt Q12809: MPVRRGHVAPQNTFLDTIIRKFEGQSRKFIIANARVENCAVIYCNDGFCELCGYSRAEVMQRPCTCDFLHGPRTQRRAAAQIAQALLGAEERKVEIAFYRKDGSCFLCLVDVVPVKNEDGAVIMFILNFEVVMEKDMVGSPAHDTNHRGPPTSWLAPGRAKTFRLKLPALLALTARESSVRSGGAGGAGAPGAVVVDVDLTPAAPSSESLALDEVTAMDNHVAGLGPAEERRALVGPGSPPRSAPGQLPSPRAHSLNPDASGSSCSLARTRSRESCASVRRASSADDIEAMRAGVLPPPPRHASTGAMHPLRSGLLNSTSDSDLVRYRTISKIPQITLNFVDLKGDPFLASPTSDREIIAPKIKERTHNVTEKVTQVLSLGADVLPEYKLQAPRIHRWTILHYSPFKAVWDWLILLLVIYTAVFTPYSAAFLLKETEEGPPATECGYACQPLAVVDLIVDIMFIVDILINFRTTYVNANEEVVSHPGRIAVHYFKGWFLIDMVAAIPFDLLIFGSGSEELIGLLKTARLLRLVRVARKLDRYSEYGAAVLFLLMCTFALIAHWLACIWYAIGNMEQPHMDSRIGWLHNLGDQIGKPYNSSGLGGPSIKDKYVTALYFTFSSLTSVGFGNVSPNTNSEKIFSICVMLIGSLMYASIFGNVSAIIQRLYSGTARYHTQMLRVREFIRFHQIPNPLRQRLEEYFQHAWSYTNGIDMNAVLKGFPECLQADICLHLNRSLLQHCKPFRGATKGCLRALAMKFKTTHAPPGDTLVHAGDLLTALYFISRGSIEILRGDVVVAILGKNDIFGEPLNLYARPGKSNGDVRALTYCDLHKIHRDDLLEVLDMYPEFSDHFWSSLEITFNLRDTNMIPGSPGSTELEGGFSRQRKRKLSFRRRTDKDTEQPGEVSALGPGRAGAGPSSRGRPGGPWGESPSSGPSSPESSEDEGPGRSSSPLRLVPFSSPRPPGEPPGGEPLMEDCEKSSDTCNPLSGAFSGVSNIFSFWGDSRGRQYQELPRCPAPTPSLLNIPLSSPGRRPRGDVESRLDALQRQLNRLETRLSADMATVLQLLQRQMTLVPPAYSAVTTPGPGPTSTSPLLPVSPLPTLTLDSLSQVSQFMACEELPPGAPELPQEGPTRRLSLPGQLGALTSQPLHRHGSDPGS

Entries after “also recorded” stand apart in the source; their conditions may differ.

The target in series [1] is hERG (IKr) (Homo sapiens, UniProt Q12809). The experiment in a line: Whole-cell patch clamp, IhERG tail current in transfected HEK293 cells. A general note: The patch-clamp technique gives a direct electrical read-out from membranes.
Series [2] has as its target T1, KCNJ2 (IK1) (Homo sapiens, UniProt P63252).
T1 sequence (P63252 1-427): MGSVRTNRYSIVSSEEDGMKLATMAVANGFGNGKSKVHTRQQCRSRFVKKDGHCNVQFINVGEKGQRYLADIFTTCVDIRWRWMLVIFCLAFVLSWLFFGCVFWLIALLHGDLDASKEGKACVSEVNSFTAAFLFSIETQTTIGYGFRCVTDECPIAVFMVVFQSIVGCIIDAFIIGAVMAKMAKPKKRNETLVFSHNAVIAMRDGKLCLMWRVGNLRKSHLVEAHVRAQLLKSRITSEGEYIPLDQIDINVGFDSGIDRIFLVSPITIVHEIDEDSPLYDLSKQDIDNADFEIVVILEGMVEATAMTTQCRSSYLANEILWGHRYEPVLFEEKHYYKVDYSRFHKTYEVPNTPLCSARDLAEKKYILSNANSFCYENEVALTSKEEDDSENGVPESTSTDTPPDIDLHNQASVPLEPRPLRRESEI

Regarding `COc1cc2c(Nc3ccc(Br)cc3F)ncnc2cc1OCC1CCN(C)CC1` [Vandetanib], the IhERG current in series [1] (0.3 μM) is listed as 1125.9 ± 194.1; in series [1] (3 μM), 319.6 ± 47.4. Moreover, the “Effect on IK1 currents” value in series [2] was “not significantly modified; also recorded: No effect”.
